# Test results from PubChem BioAssay (Tox21).
# Several values for one entry are separate records, joined by “and”; a condition that tells them apart may be missing. Entries that show only a call come without a potency. Equal entries are not always repeated. The list shows a part of the results, in another mix than the full data. Records with an inconclusive call do not appear. Activity calls are given as the source filed them. Calls come from the whole dose curve; as a rule, active = well fitted cell-killing curve with a large enough effect in the repeat runs; inconclusive = weak or mixed curves; inactive = flat fitted curve, though single readings scatter.
# Experiment: qHTS RealTime-Glo MT Cell Viability Assay in HepG2 cells - 32 hour (AID 1224877); note: nearly all actives have a fitted effect of over 55% in size
# Conditions: RealTime-Glo luminescence; series mostly up to 76.8 µM
# Description: U.S. Tox21 Program National Center for Advancing Translational Sciences [NCATS] NIH Chemical Genomics Center [NCGC] U.S. Environmental Protection Agency [EPA] National Institutes of Environmental Health Sciences [NIEHS] National Toxicology Program [NTP] U.S. Food and Drug Administration [FDA] Tox21 Assay Overview: Measure of cell viability is critical in the cell-base assay. Analysis of cell viability is necessary for the characterization of cell responses to cytotoxic drugs and environmental stress. A RealTime-Glo MT Cell Viability Assay to monitor cell viability in real time of continues cell culture during 40 hours of compound treatment was used to screen Tox21 10K library compounds in HepG2 cells. The RealTime-Glo MT Cell Viability Assay is a nonlytic, homogeneous, bioluminescent method to measure cell viability in real time using a simple, plate-based method. The assay involves adding NanoLuc luciferase and a cell-permeant prosubstrate to cells in culture. Viable cells reduce the proprietary prosubstrate to generate a substrate for NanoLuc luciferase. This substrate diffuses from cells into the surrounding culture medium, where it is rapidly used by the NanoLuc Enzyme to produce a luminescent signal. The signal correlates with the number of viable cells, making the assay well suited for cytotoxicity studies.
# Tox21 Assay Protocol Summary: The mixture of HepG2 cell suspension and reagents were dispensed at 600cells/6 ul/well in 1536-well tissue culture treated black solid bottom plates using a Multidrop dispenser. After the assay plates were incubated at a 37 C/5% CO2 incubator for 5 hours, 23 nL of compounds dissolved in DMSO, positive and negative controls was transferred to the assay plate by a pintool work station. The plates were incubated at 37 C for 40 hours. The luminescence intensity were measured at 0h, 8h, 16h, 24h, 32h and 40h time points using ViewLux plate reader during compound treatment.
# Potency is the fitted concentration of half-maximal effect.
Compound,Potency,"activity change, negative = cytotoxic"
O=P(Cl)(Oc1ccccc1)Oc1ccccc1,inactive,
CCC(C)(OOC(C)(C)C)OOC(C)(C)C,,inactive: 10.6% [at 15.8 µM]
O=P(Cl)(Cl)c1ccccc1,inactive,
COP(=S)(Cl)OC,inactive,
CCCCC(CC)CO[P+](=O)OCC(CC)CCCC (configuration not stated),inactive,
CN(N=O)C(=N)N[N+](=O)[O-],inactive,
O=C(Cl)OCCOC(=O)Cl,inactive,
O=[N+]([O-])c1ccc(S(=O)(=O)O)c([N+](=O)[O-])c1,inactive,
CC(C)CCCCCCCOP(OCCCCCCCC(C)C)Oc1ccccc1,inactive,
ClP(Cl)c1ccccc1,inactive,
NC(=O)Nc1ccc([As](=O)(O)O)cc1,inactive,
O=[p+]1oc2ccccc2c2ccccc21 (configuration not stated),inactive,
CN(C(=O)Cc1ccc(Cl)c(Cl)c1)[C@H]1CC[C@@]2(CCCO2)C[C@@H]1N1CCCC1,inactive,
CCOP(=S)(CC)Sc1ccccc1 (configuration not stated),inactive,
CCNC(C)Cc1ccc2c(c1)OCO2 (configuration not stated),inactive,
O=[P+](Oc1ccccc1)Oc1ccccc1,inactive,
O=C(Cl)Oc1ccccc1,inactive,
CCOC(=O)Cl,inactive,
Cc1cc([N+](=O)[O-])c(O)c([N+](=O)[O-])c1,inactive,
O=C1C2CC=CCC2C(=O)N1SC(Cl)(Cl)C(Cl)Cl (configuration not stated),active: 44 µM and active: 4.9 µM,
O=[N+]([O-])c1ccc([N+](=O)[O-])cc1,inactive,
CC(C)OP(=S)(OC(C)C)SCCNS(=O)(=O)c1ccccc1,inactive,
CCCCO[P+](=O)OCCCC,inactive,
CCCCOP(OCCCC)OCCCC,inactive,
CN(C(=O)Cc1cccc2occc12)[C@H]1CC[C@@]2(CCCO2)C[C@@H]1N1CCCC1,inactive,
CN(C(=O)Cc1ccccc1)[C@H]1CC[C@@]2(CCCO2)C[C@@H]1N1CCCC1,inactive,
COC(=O)Cl,inactive,
